Assay results published in patent EP1903056A2, “HLA-A1, -A2 -A3, -A24, -B7, and -B44 tumor associated antigen peptides and compositions” (priority 2002, dated 2004).

Assays:
[1] = target: HLA-A*0301 (Homo sapiens, UniProt P04439); experiment: Class I peptide-binding assay (inhibition of 125I-radiolabeled probe peptide), A*0301
[2] = tested on: A3 supertype family (A*0301, A*1101, A*3101, A*3301, and A*6801); experiment: A3 supertype cross-binding (alleles bound); design: species or system human
[3] = target: A*1101 (Homo sapiens, UniProt P04439, A114D/D185E/E176A/F33Y/L180Q/S129P/T187R); experiment: Class I peptide-binding assay, A*1101
[4] = tested on: B7 supertype family (B*0702, B*3501, B*5101, B*5301, and B*5401); experiment: B7 supertype cross-binding (alleles bound); design: species or system human
[5] = tested on: JY cell line (B7+) peptide-loaded target cells; experiment: Primary CTL induction cultures, HLA-B7 peptides: peptide-loaded targets; assay type: cell-based, human
[6] = tested on: peptide-pulsed targets and HLA matched tumor targets; settings: result in words; cited from earlier work
[7] = target: HLA-A*2402 (Homo sapiens, UniProt P04439, D101N/D140Y/D185E/E176V/E190D/F33S/G103R/G107R/I119L/I121M/I306V/K335N/L105A/L180Q/L300P/N151K/N90K/Q86E/Q94H/R106L/R138H/R89G/T104I/T345S/V100E/W191G/Y123F); experiment: Class I peptide-binding assay, A*2402; settings: binding affinity (IC50) to HLA-A*2402, running text
[8] = target: A*3101 (Homo sapiens, UniProt P04439, A270S/D185E/E176V/E277Q/F33T/G231S/G80R/H175R/I121M/I218V/I322F/K168Q/L300P/L318F/M331R/P217A/Q94H/R138Q/T323A/T345S/T97I/V358M); experiment: Class I peptide-binding assay, A*3101; settings: read-out: HLA Binding (IC50 nM) A*3101
[9] = target: A*3301 (Homo sapiens, UniProt P04439, A270S/D185E/E176V/E277Q/E87N/F33T/G231S/H175R/I121M/I218V/I322F/K168Q/K210R/L300P/L318F/M331R/P217A/Q86R/Q94H/R138Q/T323A/T345S/T97I/V358M/Y195H); experiment: Class I peptide-binding assay, A*3301; settings: read-out: HLA Binding (IC50 nM) A*3301
[10] = tested on: Wildtype-pulsed EHM target cell line; experiment: Primary CTL induction cultures, HLA-A3 peptides: peptide-pulsed targets (51Cr release or in situ IFNγ ELISA); assay type: cell-based, human
[11] = target: B*3501 (Homo sapiens, UniProt P01889, A329T/A93T/A95T/C349S/D201E/D98Y/E176V/E187L/E204Q/E69T/I218V/K202T/L119I/Q94N/R155S/R180L/S121R/S35A/S48A/T118I/V127L/V306I/V36M/Y140S/Y91F); experiment: Class I peptide-binding assay, B*3501
[12] = target: B*5101 (Homo sapiens, UniProt P01889, A329T/A93T/A95T/C349S/D138N/D201E/D98Y/E187L/E204Q/E69T/G107R/I218V/K202T/L105A/L119W/N104I/Q94N/R106L/R155S/R180L/S101N/S121T/S35A/S48A/V306I/V36M/Y195H/Y91F); experiment: Class I peptide-binding assay, B*5101
[13] = target: B*5301 (Homo sapiens, UniProt P01889, A329T/A93T/A95T/C349S/D201E/D98Y/E176V/E187L/E204Q/E69T/G107R/I218V/K202T/L105A/L119I/N104I/Q94N/R106L/R155S/R180L/S101N/S121R/S35A/S48A/T118I/V127L/V306I/V36M/Y140S/Y91F); experiment: Class I peptide-binding assay, B*5301
[14] = target: HLA-A*0101 (Homo sapiens, UniProt P04439, A114D/A174V/A182V/D101N/D185E/E176A/E190D/L180R/Q94H/R68K/S129P/T187R/V100A/V91M/W191G); experiment: Class I peptide-binding assay, A*0101; settings: binding affinity (IC50) to HLA-A*0101
[15] = Table 17d, p53-derived B7 supertype crossbinders
[16] = Table 21, TAA-derived B7 supertype candidates

In the case of `CC[C@H](C)[C@H](NC(=O)[C@@H](NC(=O)[C@@H]1CCCN1)[C@@H](C)O)C(=O)N[C@@H](CO)C(=O)N1CCC[C@H]1C(=O)N[C@@H](CO)C(=O)N[C@@H](Cc1ccc(O)cc1)C(=O)N[C@H](C(=O)N[C@@H](Cc1ccc(O)cc1)C(=O)N[C@@H](Cc1ccc(O)cc1)C(=O)N[C@@H](CCCNC(=N)N)C(=O)O)[C@@H](C)O` [CEA418], the pIC50 ([1]; Table 16a) was 5.00 and the “Number of A3 alleles crossbound” value ([2]; Table 16a) was 3.

In the case of `CC[C@H](C)[C@H](NC(=O)[C@@H](N)[C@@H](C)O)C(=O)N[C@@H](CO)C(=O)N1CCC[C@H]1C(=O)N[C@@H](CO)C(=O)N[C@@H](Cc1ccc(O)cc1)C(=O)N[C@H](C(=O)N[C@@H](Cc1ccc(O)cc1)C(=O)N[C@@H](Cc1ccc(O)cc1)C(=O)N[C@@H](CCCNC(=N)N)C(=O)O)[C@@H](C)O` [CEA419], the “A*1101 binding affinity class” value [3] was “High” and the “Number of A3 alleles crossbound” value ([2]; Table 16a) was 4.

For `CC[C@H](C)[C@H](N)C(=O)N1CCC[C@H]1C(=O)N[C@@H](Cc1c[nH]c2ccccc12)C(=O)N[C@@H](CCC(N)=O)C(=O)N[C@@H](CCCNC(=N)N)C(=O)N[C@@H](CC(C)C)C(=O)N[C@@H](CC(C)C)C(=O)N[C@@H](CC(C)C)C(=O)N[C@H](C(=O)N[C@H](C(=O)O)[C@@H](C)CC)[C@@H](C)O` [CEA.13I10], the “Number of B7 alleles crossbound” value ([4]; Table 17a) was 4 and the “Immunogenicity Wildtype” value ([5]; Table 17a, positive/total tested) was 0/1.

With `CC[C@H](C)[C@H](NC(=O)[C@@H](N)[C@@H](C)O)C(=O)N[C@@H](CO)C(=O)N1CCC[C@H]1C(=O)N[C@@H](CC(C)C)C(=O)N[C@@H](CC(N)=O)C(=O)N[C@H](C(=O)N[C@@H](CO)C(=O)N[C@@H](Cc1ccc(O)cc1)C(=O)N[C@@H](CCCCN)C(=O)O)[C@@H](C)O` [CEA.241.K10] the “improvement in A3 binding, analog over wildtype” value [1] was 26 fold and the “Number of A3 alleles crossbound” value ([2]; Table 16a) was 3.

For `CC(C)[C@H](NC(=O)[C@H](Cc1ccccc1)NC(=O)[C@H](Cc1c[nH]c2ccccc12)NC(=O)[C@H](CO)NC(=O)[C@H](Cc1ccc(O)cc1)NC(=O)[C@@H](N)CCC(N)=O)C(=O)N[C@@H](CC(N)=O)C(=O)NCC(=O)N[C@H](C(=O)N[C@@H](Cc1ccccc1)C(=O)O)[C@@H](C)O` [CEA.268], the “CTL induction / antigenicity / tumor target recognition reported in the literature” value [6] is given as “induced CTLs in normal donors that recognized peptide-pulsed targets and HLA matched tumor targets” and the pIC50 [7] is given as at least 7.00.

With `CC(C)C[C@H](NC(=O)[C@H](CC(C)C)NC(=O)[C@@H](NC(=O)[C@H](CC(C)C)NC(=O)[C@@H](NC(=O)[C@@H](N)CCCNC(=N)N)[C@@H](C)O)[C@@H](C)O)C(=O)N[C@@H](CO)C(=O)N[C@H](C(=O)N[C@H](C(=O)N[C@@H](CCCNC(=N)N)C(=O)O)[C@@H](C)O)C(C)C` [CEA.376] the “A*1101 binding affinity class” value [3] was “High”, the IC50 ([8]; Table 16a) was 6 nM and the “Number of A3 alleles crossbound” value ([2]; Table 16a) was 3.

For `CC(C)C[C@H](NC(=O)[C@@H](NC(=O)[C@H](CC(C)C)NC(=O)[C@@H](NC(=O)[C@@H](N)CCCNC(=N)N)[C@@H](C)O)[C@@H](C)O)C(=O)N[C@@H](Cc1ccccc1)C(=O)N[C@@H](CC(N)=O)C(=O)N[C@H](C(=O)N[C@H](C(=O)N[C@@H](CCCNC(=N)N)C(=O)O)[C@@H](C)O)C(C)C` [CEA.554], the “A*1101 binding affinity class” value [3] was “High”, the IC50 ([8]; Table 16a) was 5 nM and the IC50 ([9]; Table 16a) was 1610 nM. The “Number of A3 alleles crossbound” value ([2]; Table 16a) was 4.

For `CC[C@H](C)[C@H](NC(=O)[C@H](Cc1ccccc1)NC(=O)[C@H](CC(C)C)NC(=O)[C@@H](NC(=O)[C@H](CCC(N)=O)NC(=O)[C@@H](NC(=O)[C@@H](N)Cc1c[nH]cn1)[C@@H](C)O)C(C)C)C(=O)N[C@@H](C)C(=O)N[C@@H](CCCCN)C(=O)O` [CEA.636], the “A*1101 binding affinity class” value [3] was “High” and the “Number of A3 alleles crossbound” value ([2]; Table 16a) was 4.

In the case of `CC(C)C[C@H](NC(=O)[C@H](CC(N)=O)NC(=O)[C@H](CO)NC(=O)[C@@H](NC(=O)[C@H](Cc1ccccc1)NC(=O)[C@H](CS)NC(=O)[C@H](C)NC(=O)[C@H](Cc1ccc(O)cc1)NC(=O)[C@@H](N)[C@@H](C)O)C(C)C)C(=O)O` [CEA.652], the “CTL induction / antigenicity / tumor target recognition reported in the literature” value [6] is listed as “the same results” and the pIC50 [7] is listed as at least 7.00.

For `CC[C@H](C)[C@H](NC(=O)CNC(=O)[C@H](Cc1ccccc1)NC(=O)[C@@H](NC(=O)[C@@H](N)C(C)C)C(C)C)C(=O)N[C@@H](CC(C)C)C(=O)N[C@H](C(=O)N[C@@H](CCCCN)C(=O)N[C@@H](CCCCN)C(=O)O)[C@@H](C)CC` [Her2/neu.669.K9], the IC50 ([9]; Table 16b) was 10000 nM.

In the case of `CC[C@H](C)[C@H](NC(=O)[C@@H](N)CCCCN)C(=O)N[C@@H](CCCNC(=N)N)C(=O)N[C@@H](CCCCN)C(=O)N[C@@H](Cc1ccc(O)cc1)C(=O)N[C@H](C(=O)N[C@@H](CCSC)C(=O)N[C@@H](CCCNC(=N)N)C(=O)N[C@@H](CCCCN)C(=O)O)[C@@H](C)O` [Her2/neu.681.K9], the pIC50 ([1]; Table 16b) was 6.75, the pIC50 ([3]; Table 16b) was 5.96 and the IC50 ([8]; Table 16b) was 6430 nM. The IC50 ([9]; Table 16b) was 10000 nM and the “Number of A3 alleles crossbound” value ([2]; Table 16b) was 1.

With `CC(C)C[C@H](N)C(=O)N[C@H](C(=O)N[C@@H](CCCCN)C(=O)N[C@@H](CO)C(=O)N1CCC[C@H]1C(=O)N[C@@H](CC(N)=O)C(=O)N[C@@H](Cc1c[nH]cn1)C(=O)N[C@H](C(=O)N[C@@H](CCCCN)C(=O)O)C(C)C)C(C)C` [Her2/neu.852] the “Number of CTL inductions yielding positive responses / total tested, Wildtype-pulsed EHM target cell line” value ([10]; Table 16b) was 0/3 and the “in vitro immunogenicity: CTL induction, recognition of peptide-pulsed targets” value ([10]; result in words) was “immunogenic; also recorded: capable of inducing a CTL response in normal donors”.

`CC[C@H](C)[C@H](NC(=O)[C@H](Cc1ccc(O)cc1)NC(=O)[C@H](CC(C)C)NC(=O)[C@H](CC(N)=O)NC(=O)[C@H](CC(=O)O)NC(=O)[C@H](Cc1ccccc1)NC(=O)[C@H](C)NC(=O)[C@@H]1CCCN1C(=O)[C@@H](N)CO)C(=O)O` [Her2/neu.1214] showed a pIC50 ([11]; Table 17b) of 6.00, a pIC50 ([12]; Table 17b) of 6.64 and a pIC50 ([13]; Table 17b) of 6.81. The “Number of B7 alleles crossbound” value ([4]; Table 17b) was 3.

For `CC[C@H](C)[C@H](NC(=O)[C@@H]1CCCN1C(=O)[C@H](CC(=O)O)NC(=O)[C@@H](NC(=O)[C@@H](N)CCC(=O)O)C(C)C)C(=O)NCC(=O)N[C@@H](Cc1c[nH]cn1)C(=O)N[C@@H](CC(C)C)C(=O)N[C@@H](Cc1ccc(O)cc1)C(=O)O` [MAGE3.168], the “CTL induction / antigenicity / tumor target recognition reported in the literature” value [6] is listed as “induction of MAGE3.168-specific CTLs as well as endogenous recognition of tumor targets” and the pIC50 [14] is listed as at least 7.00.

`C[C@H](N)C(=O)N1CCC[C@H]1C(=O)N[C@@H](C)C(=O)N[C@@H](C)C(=O)N1CCC[C@H]1C(=O)N[C@H](C(=O)N1CCC[C@H]1C(=O)N[C@@H](C)C(=O)N[C@@H](C)C(=O)O)[C@@H](C)O` [compound 154] gave a pIC50 [12, 15] of 5.00 and a pIC50 [13, 15] of 5.00.

With `C[C@H](N)C(=O)N1CCC[C@H]1C(=O)N[C@@H](C)C(=O)N[C@@H](C)C(=O)N1CCC[C@H]1C(=O)N[C@H](C(=O)N1CCC[C@H]1C(=O)N[C@@H](C)C(=O)N[C@@H](C)C(=O)N1CCC[C@H]1C(=O)N[C@@H](C)C(=O)O)[C@@H](C)O` [compound 155] the pIC50 [12, 16] was 5.00, the pIC50 [12, 15] was 5.00 and the “No. B7 supertype alleles crossbound (200)” value [4, 16] was 3. For the same molecule, the “Number of B7 alleles crossbound” value [4, 15] was 3, the “Immunogenicity Peptide” value [5, 16] was 0/1 and the “Immunogenicity Peptide” value [5, 15] was 0/1.

With `CC[C@H](C)[C@H](NC(=O)[C@H](CO)NC(=O)[C@@H]1CCCN1C(=O)[C@H](C)NC(=O)[C@@H]1CCCN1C(=O)[C@H](C)NC(=O)[C@@H]1CCCN1C(=O)[C@H](C)N)C(=O)O` [compound 157] the pIC50 [11] was 5.00 and the “Number of B7 alleles crossbound” value [4, 15] was 3.

pIC50: −log10 of the molar value. “Also recorded” adds a separate entry of the source. Where two headings read alike, the source gives them in different places.
